Measurements published in PubChem BioAssay AID602363 (Broad Institute, 2012).
Among all 350,000 compounds or so, about 450 (0.13%) were called active.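 Rule for the calls: active = replicate mean at a twofold rise or more (about +100% in these data); inactive = the rest.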 Only a selection was taken, and actives are over-represented in it overall.

Assay: UUG initiation codon usage in yeast – whole organism, S. cerevisiae, single point, plate reader, primary screen (AID 602363);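 note: firefly luciferase made from a UUG start codon reports start codon fidelity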
Details: S. cerevisiae UUG-firefly luciferase reporter, luminescence/redox ratio; at 18.7 µM; active compounds read high

Compound | activity score
O=C(C[C@H]1C[C@H]2c3cc(NC(=O)NC4CCCC4)ccc3O[C@H]2[C@H](CO)O1)NCCc1ccccc1 | -18.1% (inactive)
C[C@@H]1CN([C@H](C)CO)C(=O)c2cc(NS(=O)(=O)c3ccccc3)ccc2O[C@@H](C)CCCCO[C@H]1CN(C)C(=O)C1CCCCC1 | 18.3% (inactive)
CCC(=O)N1[C@@H](CO)[C@H](c2ccc(-c3cccc(F)c3)cc2)[C@@H]1CNC(C)=O | 2% (inactive)
C[C@H](CO)N1C[C@H](C)[C@@H](CN(C)S(=O)(=O)c2cccs2)Oc2ccc(NC(=O)Nc3cccc4ccccc34)cc2CC1=O | -2.1% (inactive)
C[C@@H]1CN([C@H](C)CO)C(=O)c2cccc(NC(=O)Nc3ccccc3)c2O[C@H]1CN(C)S(C)(=O)=O | 1.91% (inactive)
C[C@@H]1CN([C@H](C)CO)C(=O)c2cc(NS(=O)(=O)c3ccc(F)cc3)ccc2O[C@H]1CN(C)C(=O)Nc1cccc2ccccc12 | -5.16% (inactive)
CCC(=O)N(C)C[C@H]1Oc2cc(C#CC3CCCC3)ccc2S(=O)(=O)N([C@H](C)CO)C[C@@H]1C | -3% (inactive)
COc1ccccc1-c1cn(CC[C@H]2CC[C@@H](NC(=O)CCN3CCCCC3)[C@@H](CO)O2)nn1 | 7.11% (inactive)
O=C(Cc1ccccn1)NCC[C@H]1CC[C@H](NS(=O)(=O)c2ccccc2)[C@@H](CO)O1 | 7.13% (inactive)
COc1cccc(S(=O)(=O)Nc2ccc3c(c2)C(=O)N(C)C[C@@H](OC)[C@H](C)CN(C(=O)Cc2cccnc2)[C@H](C)CO3)c1 | -4.59% (inactive)
O=C1N=C(N2CCOCC2)S/C1=C\C=C/c1ccccc1 | -1.22% (inactive)
O=C1N=C(N2CCc3ccccc3C2)S/C1=C\c1ccc(O)cc1 | 376% (active)
CCOc1cc(/C=C2\SC(N3CCCCC3)=NC2=O)ccc1O | 6.38% (inactive)
Cc1c(Nc2cc(N3CCCC(C)C3)c3nonc3c2[N+](=O)[O-])c(=O)n(-c2ccccc2)n1C (stereo not drawn) | 273% (active)
Cc1cc(C)c(S(=O)(=O)Nc2c(C)n(C)n(-c3ccccc3)c2=O)cc1[N+](=O)[O-] | 3.79% (inactive)
Cc1c(NC(=O)c2c([N+](=O)[O-])cnn2C)c(=O)n(-c2ccccc2)n1C | -20.3% (inactive)
CC1CCCN(S(=O)(=O)c2ccc(N(C(=O)c3cnccn3)C(C(=O)NC3CCCCC3)c3cccs3)cc2)C1 (stereo not drawn) | 130% (active)
O=C(NC1CCCCC1)C1CCCN(S(=O)(=O)c2cccs2)C1 (stereo not drawn) | -10.8% (inactive)
CCc1ccc(N(C(=O)c2csnn2)C(C(=O)NC2CCCCC2)c2ccncc2)cc1 (stereo not drawn) | -16.9% (inactive)
O=C(C[C@@H]1C[C@H]2c3cc(NC(=O)NC4CCCCC4)ccc3O[C@H]2[C@H](CO)O1)NCc1ccncc1 | 1.45% (inactive)
CCCN1C[C@H](C)[C@H](OC)CN(C)C(=O)c2cc(NC(=O)C3CCOCC3)ccc2OC[C@@H]1C | 7.64% (inactive)
C[C@H](CO)N1C[C@H](C)[C@@H](CN(C)Cc2ccc(Cl)c(Cl)c2)Oc2ccc(NC(=O)Nc3ccc(C(F)(F)F)cc3)cc2CC1=O | -6.41% (inactive)

Compound | activity score
COc1ccc(S(=O)(=O)N(C)C[C@@H]2OCCCC[C@@H](C)Oc3ccc(NC(=O)c4ccccc4)cc3C(=O)N([C@@H](C)CO)C[C@H]2C)cc1 | -7.34% (inactive)
CO[C@H]1CN(C)C(=O)c2cc(NC(=O)Nc3cccc(F)c3)ccc2OC[C@H](C)N(C(C)=O)C[C@H]1C | 2.41% (inactive)
CCCc1cn(CC[C@@H]2CC[C@@H](NS(=O)(=O)c3ccccc3Cl)[C@@H](CO)O2)nn1 | -13.1% (inactive)
CN1C[C@@H]2[C@H](c3ccccc31)[C@@H](CO)N2C(=O)Nc1ccccc1 | -3.49% (inactive)
C[C@@H]1CN([C@H](C)CO)C(=O)c2cc(NC(=O)c3ccncc3)ccc2O[C@H]1CN(C)C(=O)Nc1ccc(C(F)(F)F)cc1 | -1.07% (inactive)
CCC(=O)N1C[C@@H](C)[C@H](OC)CN(C)C(=O)c2ccc(NC(=O)Nc3ccccc3)cc2OC[C@@H]1C | 40.8% (inactive)
C[C@H]1CCCCO[C@H](CN(C)C(=O)NC2CCCCC2)[C@@H](C)CN([C@@H](C)CO)C(=O)c2cc(NC(=O)Nc3ccc4c(c3)OCO4)ccc2O1 | -4.52% (inactive)
C[C@H]1CCCCO[C@H](CN(C)Cc2ccc(C(F)(F)F)cc2)[C@@H](C)CN([C@@H](C)CO)C(=O)c2cc(NC(=O)C3CCCCC3)ccc2O1 | 13.7% (inactive)
CC1CCC(NC(=O)C2c3ccccc3C(=O)N2Cc2ccc3c(c2)OCO3)CC1 (stereo not drawn) | 619% (active)
CCc1ccc(CN2C(=O)c3ccccc3C2C(=O)NCC2CCCO2)cc1 (stereo not drawn) | -17.4% (inactive)
O=C(Nc1ccc(Cl)cc1)C1c2cccc[n+]2CC(=O)N1Cc1ccc2c(c1)OCO2 (stereo not drawn) | -9.17% (inactive)
COc1ccc(S(=O)(=O)Nc2ccc3c(c2)CC(=O)N([C@H](C)CO)C[C@@H](C)[C@H](CN(C)S(=O)(=O)c2c(C)noc2C)O3)cc1 | -0.184% (inactive)
N#C[C@@H]1[C@H](c2ccc(C#Cc3cccc(F)c3)cc2)[C@@H](CO)N1C(=O)C1CCCC1 | -38.1% (inactive)
CN(C)CC(=O)N[C@@H]1CC[C@H](CC(=O)NCc2ccc(Cl)cc2)O[C@H]1CO | -7.2% (inactive)
O=C(NCC[C@@H]1CC[C@H](NC(=O)C2CC2)[C@@H](CO)O1)c1cc(Cl)cc(Cl)c1 | 4.52% (inactive)
C[C@@H]1CN([C@H](C)CO)C(=O)c2cc(-c3ccc(C#N)cc3)cnc2O[C@@H]1CN(C)CC1CC1 | -0.028% (inactive)
CO[C@H]1CN(C)C(=O)c2cc(NS(C)(=O)=O)ccc2OC[C@@H](C)N(Cc2ccccc2)C[C@@H]1C | 1.29% (inactive)
CCOC(=O)c1ccccc1NC(=O)COC(=O)CCC(=O)N1CCOCC1 | 19.5% (inactive)
CC(=O)Nc1ccccc1-c1cn(CC(=O)N2CCOCC2)nn1 | 127% (active)
CC(=O)Nc1ccccc1OC(=O)N1CCOCC1 | -18.2% (inactive)
C[C@H](CO)N1C[C@H](C)[C@H](CN(C)Cc2ccc(Cl)c(Cl)c2)OCCCC[C@H](C)Oc2ccc(NC(=O)NC3CCCCC3)cc2C1=O | -1.13% (inactive)
